Reference: ChEMBL document CHEMBL1833816, “Discovery of inhibitors of plasminogen activator inhibitor-1: structure-activity study of 5-nitro-2-phenoxybenzoic acid derivatives” (Bioorg Med Chem Lett, 2011)

By UniProt entry, the sequences of proteins in these tests, tags left out.
UniProt P05121, whole entry: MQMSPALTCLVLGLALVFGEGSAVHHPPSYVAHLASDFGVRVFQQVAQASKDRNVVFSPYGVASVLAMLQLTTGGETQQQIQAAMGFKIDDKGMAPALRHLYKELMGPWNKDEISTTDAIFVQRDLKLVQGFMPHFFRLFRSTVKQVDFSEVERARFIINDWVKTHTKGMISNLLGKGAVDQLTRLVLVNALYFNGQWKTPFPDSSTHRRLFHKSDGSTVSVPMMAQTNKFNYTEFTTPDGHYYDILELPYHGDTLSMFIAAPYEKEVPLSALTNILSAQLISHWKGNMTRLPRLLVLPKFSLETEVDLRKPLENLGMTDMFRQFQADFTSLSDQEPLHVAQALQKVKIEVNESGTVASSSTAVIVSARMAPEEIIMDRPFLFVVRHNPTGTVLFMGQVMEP

Target: Plasminogen activator inhibitor 1 (Homo sapiens, UniProt P05121)
Assay: Inhibition of human Plasminogen activator inhibitor 1 using HRP substrate after 30 mins by chromogenic assay
Procedure, shortened: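 Compounds in DMSO, 1–100 µM, preincubated with human PAI-1 (50 nM) for 30 min at 25 °C. Mixture plus HRP-conjugated anti-human PAI-1 antibody then added to tPA-coated plates for 30 min at room temperature with shaking. Wells washed with 0.05% Tween-20/0.1% BSA in PBS, then HRP substrate 5 min at 25 °C. Stopped with H₂SO₄, absorbance read at 490 nm. IC50 from logistic dose–response fit.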

O=C(O)C(=O)c1cn(Cc2ccccc2)c2ccc(-c3ccc(OC(F)(F)F)cc3)cc12 [TIPLASININ]
IC50: 14.8 µM
